Experiments:
cyclophilin A (CYPA) = cyclophilin A (CYPA) (Homo sapiens, UniProt P62937); assay: CYPA-compound binary complex formation by SPR; conditions: read-out: CYPA Binding Affinity
Procedure, shortened: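 Steady-state fit of SPR responses gave binding affinity. Analyte series: 50 μM downward, 2-fold, 10 points, running buffer HBS-P+ (0.05% Tween20, pH7.4, 2% DMSO), 60 s on/60 s off. Surface: biotinylated CypA-Avi captured at 4 μg/ml against a reference cell, regenerated with NaOH/guanidine.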

[1] = target: BRAF-GTP-KRAS-G12C complex (Homo sapiens, UniProt P01116+P62937, G12C); assay: KRAS-BRAF complex disruption through competition with CYPA-compound by TR-FRET; conditions: read-out: BRAF-GTP-KRAS-G12C Disruption; biochemical BRAF-KRAS G12C-GTP disruption assay EC50, with CYPA
Procedure, shortened: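 Compound-driven loss of KRAS–BRAF RBD TR-FRET signal, Eu-anti-His/APC-anti-GST pair (10/50 nM, 1.5 h), following a 3 h room-temperature preincubation of 50 nM His6-KRAS G12C-GTP and 500 nM CypA in 25 mM Hepes pH 7.3 buffer. EC50 by 4-parameter fit. Variants used wild-type KRAS in place of G12C or no CypA.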

pERK in H358 cells = assay: pERK inhibition in H358 cells; conditions: read-out: Cellular pERK inhibition, 4 hours treatment
Procedure, shortened: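 Human lung cancer H358 cells in RPMI/10% FBS were exposed to compound or DMSO for 4 h. Fixed and permeabilized cells were stained overnight at 4 C with anti-phospho-ERK1/2 (Thr202/Tyr204). Near-infrared imaging read the pERK signal at 800 nm, with DRAQ5 at 700 nm.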

| Structure (SMILES) | Kd (cyclophilin A (CYPA)) [µM] | EC50 [1] [µM] | IC50 (pERK in H358 cells) [µM] |
| --- | --- | --- | --- |
| COC(C)C(C)(C)c1cn2c3cc(ccc13)-c1cc(O)cc(c1)C[C@H](NC(=O)[C@H](C(C)C)N(C)C(=O)C1CN(C(=O)CCl)C1)C(=O)N1CCC[C@H](N1)C(=O)OCC(C)(C)C2 (stereo partly drawn) | > 15 | < 0.5 | 1 to 10 |
| CC(C)[C@@H](C(=O)N[C@H]1Cc2cc(O)cc(c2)-c2ccc3c(c2)n(c(=O)n3C2CCC2)C[C@H](C)COC(=O)[C@@H]2CCCN(N2)C1=O)N(C)C(=O)C1CN(C(=O)CCl)C1 | 5 to 15 | < 0.5 | < 1 |
| CC(C(=O)N[C@H]1Cc2cc(O)cc(c2)-c2ccc3c(C(C)(C)C#N)cn(c3c2)CC(C)(C)COC(=O)[C@@H]2CCCN(N2)C1=O)N(C)C(=O)C1CN(C(=O)CCl)C1 (stereo partly drawn) | > 15 | 0.5 to 5 | > 10 |
| C=CC(=O)N1CCC[C@H](C(=O)N(C)[C@H](C(=O)N[C@H]2Cc3cc(O)cc(c3)-c3ccc4c(C(C)(C)C#N)cn(c4c3)CC(C)(C)COC(=O)[C@@H]3CCCN(N3)C2=O)C(C)C)C1 | 5 to 15 | > 5 | > 10 |
| Cc1nc2ccc3cc2n1CC(C)(C)COC(=O)[C@@H]1CCCN(N1)C(=O)[C@@H](NC(=O)[C@H](C(C)C)N(C)C(=O)CC1CC=CC1=O)Cc1cc(O)cc-3c1 (single isomer, unassigned) | > 15 | < 0.5 | > 10 |
| C=CC(=O)N1CCC(F)(C(=O)N(C)[C@H](C(=O)N[C@H]2Cc3cc(O)cc(c3)-c3ccc4c(C(C)(C)C#N)cn(c4c3)CC(C)(C)COC(=O)[C@@H]3CCCN(N3)C2=O)C(C)C)CC1 | 5 to 15 | 0.5 to 5 | < 1 |
| CC#CC(=O)N1CCC(F)(C(=O)N(C)[C@H](C(=O)N[C@H]2Cc3cc(O)cc(c3)-c3ccc4c(C(C)(C)C#N)cn(c4c3)CC(C)(C)COC(=O)[C@@H]3CCCN(N3)C2=O)C(C)C)CC1 | > 15 | 0.5 to 5 | 1 to 10 |
| CC(C)[C@@H](C(=O)N[C@H]1Cc2cc(O)cc(c2)-c2ccc3c(c2)N(CC(C)(C)COC(=O)[C@@H]2CCCN(N2)C1=O)CC31COc2ccccc21)N(C)C(=O)C1CN(C(=O)CCl)C1 (stereo partly drawn) | 5 to 15 | < 0.5 | < 1 |
| C[C@@H](Cl)C(=O)N1CC(C(=O)N(C)[C@H](C(=O)N[C@H]2Cc3cc(O)cc(c3)-c3ccc4c(C(C)(C)C#N)cn(c4c3)CC(C)(C)COC(=O)[C@@H]3CCCN(N3)C2=O)c2ccccc2)C1 | > 15 | > 5 | > 10 |
| CC(C)[C@@H](C(=O)N[C@H]1Cc2cc(O)cc(c2)-c2ccc3c(C(C)(C)C#N)cn(c3c2)CC(C)(C)COC(=O)[C@@H]2CCCN(N2)C1=O)N(C)C(=O)C1CCN(C(=O)CCl)C1 (single isomer, unassigned) | 5 to 15 | < 0.5 | 1 to 10 |
| CC(C)[C@@H](C(=O)N[C@H]1Cc2cc(O)cc(c2)-c2ccc3c(-c4cc(F)ccc4C#N)cn(c3c2)CC(C)(C)COC(=O)[C@@H]2CCCN(N2)C1=O)N(C)C(=O)C1CN(C(=O)CCl)C1 | 5 to 15 | < 0.5 | < 1 |
| CC#CC(=O)N1CC[C@@H]1C(=O)N(C)[C@H](C(=O)N[C@H]1Cc2cc(O)cc(c2)-c2ccc3nc(C)n(c3c2)CC(C)(C)COC(=O)[C@@H]2CCCN(N2)C1=O)C(C)C | > 15 | > 5 | > 10 |
| COc1nn2c3cc(ccc13)-c1cc(O)cc(c1)C[C@H](NC(=O)[C@H](C(C)C)N(C)C(=O)C1CN(C(=O)CCl)C1)C(=O)N1CCC[C@H](N1)C(=O)OCC(C)(C)C2 | 5 to 15 | < 0.5 | < 1 |
| COc1ccc(C#N)c(-c2cn3c4cc(ccc24)-c2cc(O)cc(c2)C[C@H](NC(=O)[C@H](C(C)C)N(C)C(=O)C2CN(C(=O)[C@@H](C)Cl)C2)C(=O)N2CCC[C@H](N2)C(=O)OCC(C)(C)C3)c1 | 5 to 15 | 0.5 to 5 | > 10 |
| C=CC(=O)N1CC[C@H](C(=O)N(C)[C@H](C(=O)N[C@H]2Cc3cc(O)cc(c3)-c3ccc4c(c3)N(CC(C)(C)COC(=O)[C@@H]3CCCN(N3)C2=O)CC4(C)COC)C(C)C)C1 (single isomer, unassigned) | 5 to 15 | 0.5 to 5 | 1 to 10 |
| C=CC(=O)N1CC[C@H](C(=O)N(C)[C@H](C(=O)N[C@H]2Cc3cc(O)cc(c3)-c3ccc4c(c3)N(CC(C)(C)COC(=O)[C@@H]3CCCN(N3)C2=O)CC42COc3ncccc32)C(C)C)C1 (stereo partly drawn) | 5 to 15 | 0.5 to 5 | 1 to 10 |

The remaining lines, values ahead:

| Kd (cyclophilin A (CYPA)) [µM] | EC50 [1] [µM] | IC50 (pERK in H358 cells) [µM] | Structure (SMILES) |
| --- | --- | --- | --- |
| < 5 | 0.5 to 5 | > 10 | CC(C)[C@@H](C(=O)N[C@H]1Cc2cc(O)cc(c2)-c2ccc3c(c2)N(CC3C(C)(C)C#N)C[C@H](C)COC(=O)[C@@H]2CCCN(N2)C1=O)N(C)C(=O)C1CN(C(=O)CCl)C1 (single isomer, unassigned) [249] |
| < 5 | > 5 | 1 to 10 | CC1COC(=O)[C@@H]2CCCN(N2)C(=O)[C@@H](NC(=O)[C@H](C(C)C)N(C)C(=O)C2CN(C(=O)[C@@H](C)Cl)C2)Cc2cc(O)cc(c2)-c2ccc3c(c2)c(cn3C(C)(C)C#N)C1 (single isomer, unassigned) [260] |
| < 5 | > 5 | > 10 | Cc1nc2ccc3cc2n1C(C)CCOC(=O)[C@@H]1CCCN(N1)C(=O)[C@@H](NC(=O)[C@H](C(C)C)N(C)C(=O)C1CN(C(=O)CCl)C1)Cc1cc(O)cc-3c1 (stereo partly drawn) |
| < 5 | 0.5 to 5 | > 10 | CC(C)[C@@H](C(=O)N[C@H]1Cc2cc(O)cc(c2)-c2ccc3c(C(C)(C)C#N)cn(c3c2)CC(C)(C)COC(=O)[C@@H]2CCCN(N2)C1=O)N(C)C(=O)[C@@H]1CCN(C(=O)[C@@H](C)Cl)C1 |
| < 5 | 0.5 to 5 | > 10 | CC(C)[C@@H](C(=O)N[C@H]1Cc2cc(O)cc(c2)-c2ccc3c(C(C)(C)C#N)cn(c3c2)C[C@H](C)COC(=O)[C@@H]2CCCN(N2)C1=O)N(C)C(=O)C1CN(C(=O)[C@@H](C)Cl)C1 |
| < 5 | 0.5 to 5 | > 10 | C=CC(=O)N1CCC2(CCCN([C@H](C(=O)N[C@H]3Cc4cc(O)cc(c4)-c4ccc5c(C(C)(C)C#N)cn(c5c4)CC(C)(C)COC(=O)[C@@H]4CCCN(N4)C3=O)C(C)C)C2=O)C1 (single isomer, unassigned) [350] |
| < 5 | < 0.5 | 1 to 10 | C=CC(=O)N1CCC(C(=O)N(C)[C@H](C(=O)N[C@H]2Cc3cc(O)cc(c3)-c3ccc4c(C(C)(C#N)CC#N)cn(c4c3)CC(C)(C)COC(=O)[C@@H]3CCCN(N3)C2=O)C(C)C)C1 (stereo partly drawn) |
| < 5 | 0.5 to 5 | > 10 | CC(C)[C@@H](C(=O)NC1Cc2cc(O)cc(c2)-c2ccc3c(C#N)cn(c3c2)CCCCOC(=O)[C@@H]2CCCN(N2)C1=O)N(C)C(=O)C1CN(C(=O)CCl)C1 (stereo partly drawn) |
| < 5 | > 5 | > 10 | C=CC(=O)N1CCCC2(CCN([C@H](C(=O)N[C@H]3Cc4cc(O)cc(c4)-c4ccc5c(C(C)(C)C#N)cn(c5c4)CC(C)(C)COC(=O)[C@@H]4CCCN(N4)C3=O)C(C)C)C2=O)C1 (single isomer, unassigned) [333] |
| < 5 | < 0.5 | > 10 | CC(C)[C@@H](C(=O)N[C@H]1Cc2cc(O)cc(c2)-c2ccc3c(-c4ccc5ncsc5c4)cn(c3c2)CC(C)(C)COC(=O)[C@@H]2CCCN(N2)C1=O)N(C)C(=O)C1CN(C(=O)CCl)C1 |

From US20240139185A1, “COMPOUNDS THAT PARTICIPATE IN COOPERATIVE BINDING AND USES THEREOF” (Revolution Medicines, Inc., priority 2018, published 2024)
